These results are taken from ChEMBL document CHEMBL1153085, “Spare interactions of highly potent [Arg(14),Lys(15)]nociceptin for cooperative induction of ORL1 receptor activation” (Bioorg Med Chem, 2009).

The chains behind the UniProt entries cited, without tags or fusion partners.
UniProt P35370, whole entry D206A: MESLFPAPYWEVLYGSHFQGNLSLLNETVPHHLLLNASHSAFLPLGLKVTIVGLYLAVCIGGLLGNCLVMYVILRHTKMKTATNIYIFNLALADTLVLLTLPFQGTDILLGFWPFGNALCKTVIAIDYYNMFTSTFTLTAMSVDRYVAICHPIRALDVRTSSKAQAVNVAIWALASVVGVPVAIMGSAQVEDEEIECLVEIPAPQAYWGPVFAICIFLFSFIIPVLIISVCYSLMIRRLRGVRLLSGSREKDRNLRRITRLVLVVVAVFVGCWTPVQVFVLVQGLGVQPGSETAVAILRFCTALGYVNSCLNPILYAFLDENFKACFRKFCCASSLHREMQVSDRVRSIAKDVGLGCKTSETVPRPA
UniProt P35370, whole entry Y207A: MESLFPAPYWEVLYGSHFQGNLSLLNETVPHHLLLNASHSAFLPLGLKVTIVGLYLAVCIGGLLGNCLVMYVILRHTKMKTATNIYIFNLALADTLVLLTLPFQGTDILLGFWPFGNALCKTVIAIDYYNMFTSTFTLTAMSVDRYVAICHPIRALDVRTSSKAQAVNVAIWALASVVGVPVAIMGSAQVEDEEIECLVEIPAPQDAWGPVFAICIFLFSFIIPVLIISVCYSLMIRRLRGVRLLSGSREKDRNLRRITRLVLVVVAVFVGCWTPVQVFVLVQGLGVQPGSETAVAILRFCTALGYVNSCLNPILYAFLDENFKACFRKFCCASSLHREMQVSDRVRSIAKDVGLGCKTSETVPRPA

Test [1] has as its target Nociceptin receptor (Rattus norvegicus, UniProt P35370, D206A). Briefly: biochemical.
Test [2] has as its target Nociceptin receptor (Rattus norvegicus, UniProt P35370, Y207A). Briefly: biochemical.

Usually IC50 stands for the concentration that inhibits the measured activity by half. The low end stands for greater potency in that assay, the high end for weaker potency in that assay.

Take `CC(C)C[C@H](NC(=O)[C@H](CCCCN)NC(=O)[C@H](CCCN=C(N)N)NC(=O)[C@H](C)NC(=O)[C@H](CO)NC(=O)[C@H](CCCCN)NC(=O)[C@H](CCCN=C(N)N)NC(=O)[C@H](C)NC(=O)CNC(=O)[C@@H](NC(=O)[C@H](Cc1ccccc1)NC(=O)CNC(=O)CNC(=O)[C@@H](N)Cc1ccccc1)[C@@H](C)O)C(=O)N[C@@H](C)C(=O)N[C@@H](CC(N)=O)C(=O)N[C@@H](CCC(N)=O)C(=O)O` (stereo in doubt; form 2) [NOCICEPTIN]: the IC50 worked out at 0.54 nM against Nociceptin receptor [1] and 0.46 nM against Nociceptin receptor [2].
The matching figures for `CC(C)C[C@H](NC(=O)[C@H](CCCCN)NC(=O)[C@H](CCCN=C(N)N)NC(=O)[C@H](C)NC(=O)[C@H](CO)NC(=O)[C@H](CCCCN)NC(=O)[C@H](CCCN=C(N)N)NC(=O)[C@H](C)NC(=O)CNC(=O)[C@@H](NC(=O)[C@H](Cc1ccccc1)NC(=O)CNC(=O)CNC(=O)[C@@H](N)Cc1ccccc1)[C@@H](C)O)C(=O)N[C@@H](C)C(=O)N[C@@H](CC(N)=O)C(=O)N[C@@H](CCC(N)=O)C(=O)O` (stereo in doubt; form 1) [NOCICEPTIN]: 1.02 nM and 0.91 nM.
